Experimental properties from OPERA 2.9

Values as listed in the OPERA 2.9 repository of K. Mansouri.

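OPERA's authors assembled the values from existing databases and did not measure them anew. One number stands for a compound and property, with no spread given. Method and conditions are not stated for these values. Where a salt, mixture or single isomer is drawn, the source does not say that exactly this form was tested. Unmarked limits or estimates from the upstream databases cannot be ruled out.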

The melting point is given in degrees Celsius. The boiling point refers to atmospheric pressure (760 mmHg), by the definition of the set. The octanol-water partition coefficient is given as log10; larger values mean a more lipophilic compound. Water solubility is log10 of mol/L, nominally at 25 °C; higher is more soluble. Vapor pressure is log10 of mmHg; the set covers 15 to 30 °C, mostly 20 to 25 °C. The unbound fraction in human plasma runs from 0 (all bound) to 1 (all free). Intrinsic clearance (human, µL/min per 10^6 hepatocytes): higher is faster turnover, and 0 stands for none detected. Cells with "–" have no entry in this list.

| MP (°C) | boiling point (°C) | log Kow | log solubility (log10 mol/L) | log vapor pressure (log10 mmHg) | fu | Clint (µL/min/10^6 cells) | structure (SMILES) |
|---|---|---|---|---|---|---|---|
| – | 176.8 | 2.5 | -2.18 | 0.143 | – | – | C=CC1COC(CC(C)C)O1 (stereo unspecified) |
| – | – | – | -4.986 | -1.752 | – | – | CCCCCCCCCCOC(C)=O |
| 289 | – | – | -2.233 | – | – | – | O=C(O)c1cccc2cccc(-c3cccc4cccc(C(=O)O)c34)c12 |
| – | – | – | – | – | 0.001678 | 24.84 | Cc1c(C)c2c(c(C)c1O)CCC(C)(COc1ccc(CC3SC(=O)NC3=O)cc1)O2 (stereo unspecified) |
| – | 309.9 | – | -4.283 | -2.463 | – | – | CC(=CC(C)C)C(C)OC(C)(C)COC(=O)C1CC1 (stereo unspecified) |
| – | – | -1.51 | – | -5.739 | – | – | C=CCOCC(O)CS(=O)(=O)[O-].[Na+] (stereo unspecified) |
| – | – | – | -2.599 | -2.018 | – | – | CC(=O)Oc1ccc([N+](=O)[O-])cc1 |
| 191.8 | – | -2.73 | – | – | – | – | CC(=O)OCC(CNC(=O)c1c(I)c(N)c(I)c(C(=O)O)c1I)OC(C)=O (stereo unspecified) |
| – | – | 3.2 | -3.085 | -3.504 | – | – | CCCCCCC1C(=O)CCC1C(=O)OC (stereo unspecified) |
| -34 | – | – | – | -2.648 | – | – | CCO[Si](CC[Si](OCC)(OCC)OCC)(OCC)OCC |
| 167 | – | 4.8 | -7.306 | – | – | – | N#CCCN(CCc1ccccc1)c1ccc(N=Nc2ccc([N+](=O)[O-])cc2C#N)cc1 |
| 246 | – | 1.23 | -3.728 | – | – | – | COc1cc2c(cc1OC)CC(=O)NC=C2 |
| – | – | 7.63 | – | -3.581 | – | – | CC(CC(C)C)=NCCNCCN=C(C)CC(C)C |
| 121.1 | – | – | -7.382 | -8.25 | – | – | CC1(C)c2ccccc2-c2ccc(Nc3ccccc3-c3ccccc3)cc21 |
| – | – | 0.2 | -2.572 | – | – | – | O=C([O-])c1ccc2c3ccc4c5c(ccc(c6ccc(C(=O)[O-])c1c26)c53)C(=O)NC4=O.[K+].[K+] |
| 203.2 | – | 4.9 | -7.479 | -9.462 | – | – | CCN(CC)c1ccc2cc(-c3nc(=O)c4ccccc4[nH]3)c(=O)oc2c1 |
| – | – | 1.96 | -1.713 | – | – | – | CC(C=O)c1ccccc1 (stereo unspecified) |
| -68.6 | – | – | – | -1.846 | – | – | CCO[Si](CCC#N)(OCC)OCC |
| -46.6 | – | – | -2.268 | 1.285 | – | – | C=C(C)C(=O)OCC(F)(F)F |
| – | – | 2.3 | -2.637 | – | – | – | Cc1ccccc1N1CCN(CCc2nnc3n2CCCC3)CC1 |
| 321.3 | – | -0.785 | -2.176 | -7.426 | – | – | Cc1cn2[nH]c(=N)nc2nc1O |
| – | – | 1.25 | – | 0.672 | – | – | CCN(CC)CC(C)O (stereo unspecified) |
| 134 | – | – | -3.957 | – | – | – | OCCC(CCO)c1ccc(N=Nc2ccccc2)cc1 |
| 216.1 | – | – | -5.439 | -9.604 | – | – | N#Cc1ccc(Nc2nccc(Cl)n2)cc1 |
| 200 | – | -2.3 | – | – | – | – | COS(=O)(=O)[O-].Cc1ccc(Nc2ccc(NCCC[N+](C)(C)C)c3c2C(=O)c2ccccc2C3=O)cc1 |
| – | – | 4 | -3.843 | -1.202 | – | – | CCCCCC(CO)Cc1ccccc1 (stereo unspecified) |
| 139 | – | 1.64 | -3.051 | -5.084 | – | – | COc1cc2c(cc1OC)CC(=O)N(CCC1OCCO1)C=C2 |
| – | – | 7.9 | -7.782 | – | – | 0 | CC(C)(c1ccccc1)c1ccc(Nc2ccc(C(C)(C)c3ccccc3)cc2)cc1 |
| – | – | 5.1 | -4.173 | -1.397 | – | – | CCC(=O)OC1CCC(C(C)C)CC1 (stereo unspecified) |
| – | – | 2.75 | – | -1.696 | – | – | ClCC=Cc1ccccc1 |
| – | – | 4.15 | -6.192 | – | – | – | CCCCC(CC)COP(=O)(OCC(CC)CCCC)OCC(CC)CCCC (stereo unspecified) |
| -50.08 | – | – | -3.677 | -1.98 | – | – | CC(C)c1cccc(C(C)CC=O)c1 (stereo unspecified) |
| – | – | – | -3.704 | -2.318 | – | – | O=C1CCCCCCCCCCC1 |
| – | – | -2.8 | -2.09 | – | – | – | Nc1nc(F)nc2c1ncn2[C@@H]1O[C@H](COP(=O)(O)O)[C@@H](O)[C@@H]1O |
| – | – | 3.45 | -7.997 | – | – | – | O=[N+]([O-])c1ccc(N=Nc2c(O)ccc3ccccc23)c(Cl)c1 |

Extract of 4 entries:

| structure (SMILES) | MP (°C) | boiling point (°C) | log Kow | log solubility (log10 mol/L) | log vapor pressure (log10 mmHg) | fu | Clint (µL/min/10^6 cells) |
|---|---|---|---|---|---|---|---|
| Nc1nc(F)nc2c1ncn2[C@@H]1O[C@H](COP(=O)(O)O)[C@@H](O)[C@@H]1O | – | – | -2.8 | -2.09 | – | – | – |
| O=C1CCCCCCCCCCC1 | – | – | – | -3.704 | -2.318 | – | – |
| OCCC(CCO)c1ccc(N=Nc2ccccc2)cc1 | 134 | – | – | -3.957 | – | – | – |
| CC(=CC(C)C)C(C)OC(C)(C)COC(=O)C1CC1 (stereo unspecified) | – | 309.9 | – | -4.283 | -2.463 | – | – |